Biological target: T1, Acyl-CoA desaturase 1 (Rattus norvegicus, UniProt P07308)
T1 sequence (P07308 whole entry): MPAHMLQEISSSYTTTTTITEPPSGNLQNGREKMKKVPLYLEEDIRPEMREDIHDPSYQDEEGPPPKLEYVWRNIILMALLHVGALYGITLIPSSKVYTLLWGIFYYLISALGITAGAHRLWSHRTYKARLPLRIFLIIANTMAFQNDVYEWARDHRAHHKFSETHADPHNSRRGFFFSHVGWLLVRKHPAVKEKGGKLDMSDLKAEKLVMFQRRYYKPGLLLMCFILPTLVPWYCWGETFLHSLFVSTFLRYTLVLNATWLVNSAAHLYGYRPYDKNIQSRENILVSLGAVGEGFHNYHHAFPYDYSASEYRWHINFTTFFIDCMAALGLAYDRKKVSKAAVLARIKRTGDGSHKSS
Test: Inhibition of SCD1 in Sprague-Dawley rat liver microsomes using stearoyl-[9,10-3H]-CoA as substrate

With Cn1cc(-c2ccc(N3CCC(N4CCc5ccc(F)cc54)CC3)nn2)cn1 as the molecule, how does the IC50 read?
The IC50 was 37 nM.
